Assay results taken from patent US20050124032A1 (priority 2002, published 2005).

Legend:
X. dendrorhous Y-2476 = assay: Flask fermentation of X. dendrorhous with compounds added to the culture medium; format: cell-based, Xanthophyllomyces dendrorhous; conditions: for Astaxanthin yield with the compound added to the culture medium / Astaxanthin yield relative to the original culture medium R4-20: flask fermentation, duroquinone 25-50 μM, retinal 35 μM, trisporic acids 50-100 μg/ml; for Astaxanthin yield with the compound added to the culture medium: 6-7 days, glutamate 5.5 mg/ml; for Astaxanthin yield relative to the original culture medium R4-20: FIG. 6, glutamate 5.5 mg/ml instead of cottonseed flour
X. dendrorhous = assay: Fermentation of X. dendrorhous in an 800-litre fermenter with addition of duroquinone; conditions: 50 μM duroquinone
[1] = duroquinone 25-50 μM added during first 24 hours of fermentation

Row | Molecule | Astaxanthin yield with the compound added to the culture medium (X. dendrorhous Y-2476) | Astaxanthin yield relative to the original culture medium R4-20 (X. dendrorhous Y-2476) | Increase in astaxanthin yield (X. dendrorhous) | Increase of the yield of astaxanthin (X. dendrorhous Y-2476; [1]) | Overall increase in specific productivity of the biomass (X. dendrorhous Y-2476; [1])
1 | trisporic acids | ≥ 200 mg/L | increases in yield | – | – | –
2 | CC1=C(/C=C/C(C)=C/C=C/C(C)=C/C=O)C(C)(C)CCC1 | at least 225 mg/l | increases in yield | – | – | –
3 | CC1=C(C)C(=O)C(C)=C(C)C1=O [duroquinone] | at least 215 mg/l | increases in yield | 15-20% | 10-20% | 30-60%
4 | glutamate | ≥ 180 mg/L | increases in yield | – | – | –
